AlphaSeq binding of Ab-91 heavy chain variants to a spike HR2 peptide

Antigen: PDVDLGDISGINAS, a 14-residue peptide of the SARS-CoV-2 spike HR2 region.

The variants keep the light chain, the linker and the frameworks of Ab-91 (scFv order VL, three GGGGS repeats, VH).
VL: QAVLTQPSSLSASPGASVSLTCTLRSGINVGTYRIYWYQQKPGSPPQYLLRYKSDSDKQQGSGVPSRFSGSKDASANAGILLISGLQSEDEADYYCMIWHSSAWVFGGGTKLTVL
VH: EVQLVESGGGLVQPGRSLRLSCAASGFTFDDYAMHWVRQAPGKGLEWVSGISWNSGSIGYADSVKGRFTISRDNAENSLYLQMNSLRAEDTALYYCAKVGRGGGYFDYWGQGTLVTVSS

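Phage display of a naive human antibody library on the peptide gave the parent. In library AAYL51, one, two or three CDR residues were substituted; doubles and triples were drawn at random. The assay is AlphaSeq: two haploid yeast populations carry antibody and antigen on their surface. Binding brings cells together so that they mate, and sequencing counts the barcode pairs among the diploids. The ratio of observed to expected reads was calibrated, replicate by replicate, on BCL2-family standards whose Kd was known from biolayer interferometry. Mating was done three times.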

Each variant is given by its three heavy chain CDRs, as the data file delimits them; those of the parent are GFTFDDYAMH, GISWNSGSIGYADSVK, VGRGGGYFDY.
Kd is apparent (estimated from mating counts) and averaged on the log scale over replicates with a signal. Smaller is tighter.
An entry "no signal" has no value in the source: the pair was not observed among the diploids in any replicate. This suggests poor binding but is not conclusive.
Order: sorted from the lowest average up, undetected variants last.
Empty control strains, which show no peptide, gave a signal in 21% of pairings with library AAYL51; the median was 34 µM and 95% of these signals were weaker than 1.8 µM. No background was subtracted.
For reference, the parent read 72 nM as the reference entry and 7.5 nM as a member of this library.

CDR-H1	CDR-H2	CDR-H3	Kd	replicates with signal
GFMFDDYAMH	GISWNSGSIGYADSVD	VGIGGGYFDY	13 nM	3 of 3
GFTFDKYAMH	GISWNSGSIGYADSSK	VGRGGGYFDY	16 nM	3 of 3
GYTFDHYAMH	GISWNSHSIGYADSVK	VGRGGGYFDY	18 nM	3 of 3
GFIFDDQAMH	GISWNSGSIGYADSVK	VGMGGGYFDY	67 nM	3 of 3
GSTFDDYAMH	GISWNSGSIGYADSFK	VKRGGGYFDY	130 nM	1 of 3
GFTFNDYAMH	GISWNSGSIGIADGVK	VGRGGGYFDY	270 nM	3 of 3
GFTFLDYGMH	GISWNKGSIGYADSVK	VGRGGGYFDY	660 nM	1 of 3
GFTFDDYAMH	GISWNSGSIGHADSVK	VSRGVGYFDY	1.8 µM	1 of 3
GFTFDDYAMH	VISWNMGSIGYACSVK	VGRGGGYFDY	1.9 µM	1 of 3
GVTFDDYVMH	GISWNSGSIGYADSVK	VGRGGGIFDY	2.3 µM	3 of 3
GFTFDCYAMH	GISWNSGSIGYADSVK	VGWGGGYFDY	2.5 µM	3 of 3
GFTFRDYAMH	GIDWNSGSIGYADSVK	VWRGGGYFDY	3.4 µM	2 of 3
GFTFDDDAMH	GISWNSGSIGYADIVK	IGRGGGYFDY	3.6 µM	1 of 3
GFTFMDYAMH	GISWNSGSIGYADSVK	VGRGGGYFDW	5.9 µM	1 of 3
GFTYDDYAMH	GISWNSGDIGIADSVK	VGRGGGYFDY	8.5 µM	2 of 3
GFTFDDYAAH	GISWNSGSIGYDDSVK	VGRNGGYFDY	11 µM	1 of 3
YFTFDDYAMH	GISWNSGSIGYADSVK	VARGGGYFEY	21 µM	1 of 3
PFCFDDYAMH	GISWNSGSIGYADSVK	VVRGGGYFDY	21 µM	1 of 3
GFTFDDYAYH	GISWNSGSIGYADSVK	VRRGGRYFDY	25 µM	1 of 3
WFTFDDYAMH	GISWNSGSIHYADSVK	TGRGGGYFDY	26 µM	1 of 3
GFTKDDYAMH	GLSWNSGSIGYADVVK	VGRGGGYFDY	26 µM	1 of 3
GFTFDDHAMH	GISWNSGSDGYADSVK	VGRGHGYFDY	26 µM	1 of 3
GFTFDDYAMH	GISWNSGSIGYADFVK	VGRLGGTFDY	28 µM	3 of 3
AFTFDDYAMH	GISHNSGSIGYADSVK	VGRGGGYFGY	34 µM	1 of 3
GFTFDDSAMH	GISWNSGSAGYADSVK	VGRGGGYCDY	42 µM	2 of 3
GFTFDDYPMH	GPSWNSGSIGYADSVK	VGRMGGYFDY	46 µM	2 of 3
GFTFDDYAMH	GISWNSGSNGYADSHK	VGRQGGYFDY	48 µM	1 of 3
GFTFDDYAMH	GILWNSQSIGYADSVG	VGRGGGYFDY	63 µM	1 of 3
GFVFDDYAMH	GISLNSGVIGYADSVK	VGRGGGYFDY	63 µM	1 of 3
GFTFHDYAMH	GISKNSGSIGYADSVK	VGRGGGYFDY	64 µM	1 of 3
GFTFDDFAIH	GISWNSGSIGYADSVK	VGRYGGYFDY	70 µM	1 of 3
GATFDDYAMH	GISWNSGSIGYADSVF	VGRGGKYFDY	73 µM	1 of 3
AFTFDDLAMH	GISWNSGSIGEADSVK	VGRGGGYFDY	75 µM	1 of 3
GWTFDDYAMH	GISWNSGSIGYYDPVK	VGRGGGYFDY	79 µM	1 of 3
GFTRDDAAMH	GISWNSGSIGYADSVK	VGRGGGYFDY	88 µM	1 of 3
GFTFDDYAMH	GISWNSGSICYADSVK	VGRGGGYFDQ	88 µM	3 of 3
GFTFDDYAMH	HISWYSGSIGYADSVK	VGRGGGYFKY	89 µM	2 of 3
GFTFDDYARH	GISWNSGSIGKADSVK	VGRGGGYFEY	90 µM	1 of 3
GFTFDDYAMH	GISWNSGSIDYADSVD	VGRGGYYFDY	130 µM	2 of 3
GFTRDDYAMH	GISWNSGSIGYADSVK	VGRGGLYFDP	170 µM	2 of 3
GFTFDDYAMH	GIWWNSGSIGIADSVK	PGRGGGYFDY	270 µM	3 of 3
GFDFDDYAMH	GISWNSGSGGYADSVL	VGRGGGYFDY	330 µM	1 of 3
GFPFDDYAMH	GISWNSGSIGYADSVK	VGLGGGYFDY	670 µM	1 of 3
GFTFDDYAMH	GISWNSGSIGYADSVK	NGRGGGYFHY	730 µM	1 of 3
GFTFDDYAMH	CISWNSGSIGYAIAVK	VGRGGGYFDY	900 µM	1 of 3
GFTFDDYAMH	GISWNKGSIGYADSVK	VGGGGGYFDY	1.4 mM	1 of 3
GFLGDDYAMH	GISWNSGSIGYADSVK	VGRGGGYFDY	no signal	0 of 3
KFTFDDAAAH	GISWNSGSIGYADSVK	VGRGGGYFDY	no signal	0 of 3
HFIFDDYAMH	RISWNSGSIGYADSVK	VGRGGGYFDY	no signal	0 of 3
CFTFDDYAMH	GISWNSGSIGKADSVK	VGRGGGYADY	no signal	0 of 3
GFTFDDYAMQ	GISANSGSIGYADSDK	VGRGGGYFDY	no signal	0 of 3
QFEFDDYAMH	GISWNSGSPGYADSVK	VGRGGGYFDY	no signal	0 of 3
CFTFDDYAMH	GISWNHGSIGYADSVK	VGRNGGYFDY	no signal	0 of 3
GFTFDDYAMH	GISWNFMSWGYADSVK	VGRGGGYFDY	no signal	0 of 3
GFTFDQYAMH	GISWNSGSIGYADSVK	VKIGGGYFDY	no signal	0 of 3
EFTFDDYAMH	MISWNSGFIGYADSVK	VGRGGGYFDY	no signal	0 of 3
GFTFDDYAMQ	GISWNRGSIGYADSVK	VGRGGGYFDY	no signal	0 of 3
GFTFDDYAMR	GISWNSGSIGGAASVK	VGRGGGYFDY	no signal	0 of 3
GWTFDDYAMH	GISWPSGSIGYADSVK	VGRGGVYFDY	no signal	0 of 3
GFTFDDYAMH	EISWNSGSICYADSVK	VGRGIGYFDY	no signal	0 of 3
GFTFDEYAMH	GISWNSGSIGYADSVK	QGRGGEYFDY	no signal	0 of 3
GFTFDDYAMH	FISWSSGSIGYADSVK	VTRGGGYFDY	no signal	0 of 3
GFTFDDYAMH	GISWNLGSIGYADSVK	VGRGGGYDDY	no signal	0 of 3
GFTFDDTAMH	GIYWLSGSIGYADSVK	VGRGGGYFDY	no signal	0 of 3
GHTFDDYAMH	GSSWNSGSIGYADSAK	VGRGGGYFDY	no signal	0 of 3
GFTFDDYAYD	GISWNSGSIGYADSYK	VGRGGGYFDY	no signal	0 of 3
GFTFDDYAMH	GISHNSGSIGNADSVK	VGRAGGYFDY	no signal	0 of 3
GATFDDYAMH	GASWNSGSIGYADSVK	VIRGGGYFDY	no signal	0 of 3

For reference, 5 entries of the list once more:

CDR-H1,CDR-H2,CDR-H3,Kd,replicates with signal
GFTFDEYAMH,GISWNSGSIGYADSVK,QGRGGEYFDY,no signal,0 of 3
YFTFDDYAMH,GISWNSGSIGYADSVK,VARGGGYFEY,21 µM,1 of 3
GFTFDDYAMH,GISWNSGSIGYADFVK,VGRLGGTFDY,28 µM,3 of 3
GFTFDDYAMH,GISWNSGSIDYADSVD,VGRGGYYFDY,130 µM,2 of 3
GFTFDDYAMH,GISWNKGSIGYADSVK,VGGGGGYFDY,1.4 mM,1 of 3

Reference: Engelhart et al. 2022, doi:10.1038/s41597-022-01779-4. File: FLAb, binding data.